Measurements taken from PubChem BioAssay AID624504 (Sanford-Burnham Center for Chemical Genomics, 2012).
This is a selection; strong and weak results do not stand in their true shares. Calls of active or inactive are those of the source. No stated cut-off is given here; in the data, active means inhibition above about 22%; inactive means the rest.

assay: fluorescence retest of MPTP screen hits in isolated mitochondria, single concentration (AID 624504); conditions: membrane potential, Rhodamine 123 fluorescence, at 10 µM, hits give high values;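 further: 0% = DMSO vehicle and 100% = positive control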

Row | SMILES | inhibition
1 | Fc1ccc(CNC(=S)Nc2cccc(Cl)c2)cc1 | active: 91.7%
2 | O=[N+]([O-])c1ccc(NC(=S)NCc2ccc(F)cc2)cc1 | active: 90.6%
